Measurements as given in article PMC3711794 (Molecular cancer therapeutics, 2012).

Biological target: T1, PLK3 PBD (335–646) (Homo sapiens, UniProt Q9H4B4)
T1 sequence (Q9H4B4 335-646): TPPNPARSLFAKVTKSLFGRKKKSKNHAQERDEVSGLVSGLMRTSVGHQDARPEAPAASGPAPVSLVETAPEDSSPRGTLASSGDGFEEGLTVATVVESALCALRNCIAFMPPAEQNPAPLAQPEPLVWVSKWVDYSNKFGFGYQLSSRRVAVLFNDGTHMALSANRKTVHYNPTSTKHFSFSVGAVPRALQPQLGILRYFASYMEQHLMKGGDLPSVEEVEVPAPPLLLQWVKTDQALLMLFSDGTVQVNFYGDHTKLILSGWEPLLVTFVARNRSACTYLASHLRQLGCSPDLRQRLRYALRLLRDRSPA
Assay: Fluorescence polarization competitive binding assay, PLK3 PBD

SMILES: CC(=O)N1CCC[C@H]1C(=O)N[C@@H](CC(C)C)C(=O)N[C@@H](Cc1c[nH]cn1)C(=O)N[C@@H](CO)C(=O)N[C@H](C(=O)N[C@@H](C)C(=O)O)[C@@H](C)OP(=O)(O)O [compound 5743, Ac-PLHS[pT]A]
- IC50: > 600 µM
